The data set deals with six protein mixture: Con A, P. sativum lectin, L. culinaris lectin, W. floribunda lectin, Glyceraldehyde 6-phosphate, and bovine serum albumin (BSA) (Canavalia ensiformis, UniProt P02866). Particulars: among the lectins of the six protein mixture. The protocol:
The ligand-resin was washed with 10 mM PBS buffer, pH 6.8 containing 1 mM CaCl2 and 1 mM MnCl2. A mixture of unlabelled proteins, Glycerol-3-phosphate: BSA: Wisteria floribunda: Lens culinaris: Pisatum sativum in a […] weight ratio was dissolved in 10 mM PBS buffer, pH 6.8 containing 1 mM CaCl2 and 1 mM MnCl2 The protein mix (3.5 mL, ca. 1.2 mg protein) was applied to each ligand column and allowed to bind overnight. The column was washed with the same buffer until no more protein was eluted (Abs 280 nm). Bound protein was eluted from the column using 0.5M mannose in 10 mM PBS buffer, pH 8.0 containing CaCl2 and 1 mM MnCl2 (buffer filtered to remove CaOH2 formed) for glycopeptides containing only mannose, 0.5 M N-acetylglucosamine in 10 […] mM PBS buffer, pH 8.0 containing CaCl2 and 1 mM MnCl2 (buffer filtered to remove CaOH2 formed) for glycopeptides containing only GlcNAc, and both buffers for glycopeptides containing both mannose and GlcNAc, or for unglycosylated peptides. Samples were obtained in about 700 μL volume and frozen for later protein identification.

In the case of GlcNN-Trp-Phe-Asp-Trp-Pro, the “selectivity of lectin binding” value is “binds only to Con A and not to the other lectins”.

Source of the values: patent publication US20040142379A1, “Affinity fishing for ligands and proteins receptors” (Carlsberg Research Laboratory, priority 2003, published 2004).
